Measured affinities in a library of Ab-14 light chain variants

Data: MIT Lincoln Laboratory AlphaSeq set, Engelhart et al. 2022, doi:10.1038/s41597-022-01779-4, as distributed in FLAb.

The target is the same throughout: PDVDLGDISGINAS, from the HR2 region of SARS-CoV-2 spike.

The variants keep the heavy chain, the linker and the frameworks of Ab-14 (scFv order VH, the linker GGGGSGGGGSGGGGS, VL).
VH: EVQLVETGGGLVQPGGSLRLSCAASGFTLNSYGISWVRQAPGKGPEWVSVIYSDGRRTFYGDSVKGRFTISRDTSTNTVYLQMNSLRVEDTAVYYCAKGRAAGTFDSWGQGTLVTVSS
VL: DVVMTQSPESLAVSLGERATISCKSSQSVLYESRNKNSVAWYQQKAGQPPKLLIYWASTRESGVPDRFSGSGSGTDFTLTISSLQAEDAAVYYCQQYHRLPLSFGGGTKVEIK

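The starting antibody came from a phage panning campaign against this peptide. In library AAYL50, one, two or three CDR residues were substituted; doubles and triples were drawn at random. In AlphaSeq, yeast of one mating type display the scFv and yeast of the other type display the target. Mating (16 h, 30 °C) was followed by selection of diploids and sequencing of their barcodes. Each replicate has its own calibration line, from reference interactions of the BCL2 family. Each pool was mated in three replicate cultures.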

Variants are written as CDR1, CDR2 and CDR3 of the light chain (limits as in the source). Parent: KSSQSVLYESRNKNSVA, WASTRES, QQYHRLPLS. This list gathers variants with a substitution at R34 (VL, numbered from residue 1). Kd is apparent (estimated from mating counts) and averaged on the log scale over replicates with a signal. Smaller is tighter. An entry "no signal" has no value in the source: the pair was not observed among the diploids in any replicate. This suggests poor binding but is not conclusive. Background: pairings of library AAYL50 with three empty control strains gave a value in 18% of cases (median 15 µM, 5th percentile 970 nM). Values in that range, when seen in few replicates, are hard to tell from nonspecific mating.

KSSQSVLYESDNKNSVA, WASTQES, QQYHRLALS: 4.7 µM (3 of 3 replicates).
KSSQSVLYESDMKNSVA, WASTRES, QVYHRLPLS: 1.3 µM (1 of 3 replicates).
KSSQRVLYESENKNSVA, WASKRES, QQYHRLPLS: 2.1 µM (3 of 3 replicates).
KKSQSVLYEKINKNSVA, WASTRES, QQYHRLPLS: 4.7 nM (3 of 3 replicates).
KSSQSVLYESPNKNSVA, YASTRES, QQYHRNPLS: no signal (0 of 3 replicates).
KYSQSVLYESANKNSVA, DASTRES, QQYHRLPLS: 610 pM (3 of 3 replicates).
KSSQSVLYESENKNSVA, WASTRES, AQYHRTPLS: 1.9 nM (3 of 3 replicates).
KTSQSVLYYSKNKNSVA, WASTRES, QQYHRLPLS: 9.7 nM (3 of 3 replicates).
KSSQSVLYESQNKNSKA, WASTREH, QQYHRLPLS: 150 nM (3 of 3 replicates).
RSSQSVLYESYNKNSVA, WASTKES, QQYHRLPLS: 15 nM (3 of 3 replicates).
KSSQSVLYESHNYNRVA, WASTRES, QQYHRLPLS: 78 nM (3 of 3 replicates).
KSSQSVLYESCNKNSVA, WASTRES, QQYHRLPTS: 5.8 µM (1 of 3 replicates).
KSMQSVLYESENKNSSA, WASTRES, QQYHRLPLS: 59 µM (2 of 3 replicates).
KSSQSVLYESINKNSVA, WASTRES, QQYHRLPLS: 4.4 nM (3 of 3 replicates).
KSSQSVLYESDNKNSVA, WASTRES, QQYPRLPLS: 35 nM (3 of 3 replicates).
KSSQSVLYESNNKNSVA, WASTRES, QQYHRLPLL: 3.5 nM (3 of 3 replicates).
KSSQSVLYESVCKNSVA, WDSTRES, QQYHRLPLS: 480 nM (3 of 3 replicates).
KSSQSVLYESNNKNSVA, WACTRES, QQYHRLPLS: 1.1 µM (3 of 3 replicates).
KSSQSVQYESQNKNSVA, WASTRES, QQYHRLPYS: 47 nM (3 of 3 replicates).
KSSLSVLYESMNKNSVV, WASTRES, QQYHRLPLS: 1.3 µM (1 of 3 replicates).
KSSQSVLYESFNKNSTA, WASTRES, QQYHYLPLS: no signal (0 of 3 replicates).
KIFQSVLYESVNKNSVA, WASTRES, QQYHRLPLS: 2.3 nM (3 of 3 replicates).
KSSQSVLYESSNKNSVA, WMSTRWS, QQYHRLPLS: 60 nM (3 of 3 replicates).
KSSQSVLYESLNKNSVY, WASTRES, QQYHILPLS: 20 µM (1 of 3 replicates).
KSSQSVLYESVNQNSVA, SASTRES, QQYHRLPLS: 990 pM (3 of 3 replicates).
KSYQSVLYESFNKNSVA, WASPRES, QQYHRLPLS: 400 nM (1 of 3 replicates).
KSSQSVLYESNNKNSVA, WASTRES, QQYHILPLS: 1.9 nM (3 of 3 replicates).
KSSQSVLYESFNKNSVA, TMSTRES, QQYHRLPLS: 280 nM (3 of 3 replicates).
KSSQSVLYESFNKNRVA, WASLRES, QQYHRLPLS: 110 nM (3 of 3 replicates).
KSSQSVLYEQANKNSVA, WASTRES, QQYHRLPLS: 90 µM (2 of 3 replicates).
KSSQSVLYEDVNKNSVA, WASTRES, QQYLRLPLS: 9.4 nM (3 of 3 replicates).
KSSQSVLYESDNKNSVA, WASTRCS, QQYHRLPLS: 960 pM (3 of 3 replicates).
KSSQSVLYEDFNKNSVA, WFSTRES, QQYHRLPLS: no signal (0 of 3 replicates).
KSSQKVLYESYNKNSVA, WASTRES, QQYHRAPLS: 8.7 nM (3 of 3 replicates).
KSSQSVVYVSTNKNSVA, WASTRES, QQYHRLPLS: 20 nM (3 of 3 replicates).
KSSQSVLYESNNKNSVA, WASTRES, QQYHRLPLS: 1.5 nM (3 of 3 replicates).
KSPQSVLGESMNKNSVA, WASTRES, QQYHRLPLS: 5.5 nM (3 of 3 replicates).
KSSQSVNYESYNKNSNA, WASTRES, QQYHRLPLS: 11 µM (3 of 3 replicates).
KSSQSVFYERTNKNSVA, WASTRES, QQYHRLPLS: 4.8 nM (3 of 3 replicates).
KSSQSVLYEKKLKNSVA, WASTRES, QQYHRLPLS: 160 nM (3 of 3 replicates).
KSSQSVLSESCNKNSVA, WASTRVS, QQYHRLPLS: 140 nM (3 of 3 replicates).
KSSQSVLYESINKNSVA, WASLRES, QQYSRLPLS: 4.9 nM (3 of 3 replicates).
KSSQSLLYESSNVNSVA, WASTRES, QQYHRLPLS: no signal (0 of 3 replicates).
NSSQSVLYESFNKNSVA, WASTRES, CQYHRLPLS: 40 µM (3 of 3 replicates).
KSSQSVEYESFNKNSVA, WASTRES, QQYHRLPLH: 12 nM (3 of 3 replicates).
KSSQSVLAESANKNSVA, WASTRES, QQYHRPPLS: 13 nM (3 of 3 replicates).
KSSQSVLYGSLNKNSVA, WASTRES, QQYWRLPLS: 31 nM (3 of 3 replicates).
KSSQSVLQESLNKNSVA, WASTRES, QQYHRLPLS: 1.3 nM (3 of 3 replicates).
KSSRSVLYESHNKNSVA, WASTRES, QQYHMLPLS: 7.3 nM (3 of 3 replicates).
KSSQSVLYESLNKNSVA, WASTRES, QQYLRLPRS: 150 µM (2 of 3 replicates).
KSSQSVLYESDQKNSVA, WASTRES, QQYHRWPLS: no signal (0 of 3 replicates).
KSSQSVLYESNNHNSVA, WASTRES, QQYHRLVLS: 4.3 nM (3 of 3 replicates).